Structures can show the parent of a compound that is named as a salt.

Sequences of proteins named here, by UniProt entry; tags and fusion partners are left off. A change or cut given only in a name is not applied to a line headed by its entry.
UniProt P41144: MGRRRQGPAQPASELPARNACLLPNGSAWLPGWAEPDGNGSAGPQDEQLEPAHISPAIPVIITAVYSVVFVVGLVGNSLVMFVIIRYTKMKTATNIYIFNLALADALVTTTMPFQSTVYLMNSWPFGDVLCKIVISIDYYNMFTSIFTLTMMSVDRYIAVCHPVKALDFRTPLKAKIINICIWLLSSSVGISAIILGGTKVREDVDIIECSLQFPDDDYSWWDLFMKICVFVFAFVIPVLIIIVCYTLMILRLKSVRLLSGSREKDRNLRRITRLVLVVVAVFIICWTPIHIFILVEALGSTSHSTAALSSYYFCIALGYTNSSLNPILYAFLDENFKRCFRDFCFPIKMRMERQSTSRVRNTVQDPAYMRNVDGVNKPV

For the first data set, the target named is kappa opioid receptor (Cavia porcellus, UniProt P41144). Nature of the data set: opioid receptor binding, kappa ((-)-[3H]ethylketocycloazocine). Further details: species or system guinea pig (method, b1124); rat (Table 4 title). The settings on record: read-out: Receptor Binding Ki KAPPA; 1 nM (-)-[3H]EKC with 500 nM DADLE and 20 nM sufentanil; brain membranes; apparent Ki.
Turning to `CN1CCCCC1C(c1ccccc1)N(C)C(=O)Cc1ccc(Cl)cc1Cl` (centres unmarked) [Example 13], the Ki was determined as 19 nM.

Take `COc1cccc([C@@H]([C@@H]2CCCCN2C)N(C)C(=O)COc2ccc(Cl)c(Cl)c2)c1` [Example 140]: the Ki is 14 nM.

With `CN1CCCC[C@@H]1[C@@H](c1ccccc1)N(C)C(=O)COc1ccc(Cl)c(Cl)c1` [Example 111], the Ki amounted to 18 nM.

In the case of `CN1CCCC[C@H]1[C@H](c1ccccc1)N(C)C(=O)COc1ccc(Cl)c(Cl)c1` [Example 110], the Ki was 3 nM.

As for `C=CCN1CCCC[C@H]1[C@H](c1ccccc1)N(C)C(=O)Cc1ccc(Cl)c(Cl)c1` [Example 180], the Ki was determined as 46 nM.

Turning to `CN1CCCCC1C(c1ccccc1)N(C)C(=O)Cc1c(F)c(F)c(F)c(F)c1F` (centres unmarked) [Example 10], the Ki came out at 57 nM.

As for `CN1CCCCC1C(c1ccccc1)N(C)C(=O)Cc1ccc(Cl)c(Cl)c1` (centres unmarked), the Ki was 8 nM.

In the case of `CN1CCCCC1C(c1cccc(O)c1)N(C)C(=O)Cc1ccc(Cl)c(Cl)c1` (centres unmarked) [Example 6, benzeneacetamide,3,4-dichloro-N-[1-(3-hydroxyphenyl)-1-(1-methyl-2-piperidinyl)methyl]-N-methyl-, hydrobromide], the Ki was found to be 9 nM.

Take `CN1CCCC[C@H]1[C@H](c1ccc(F)cc1)N(C)C(=O)Cc1ccc(Cl)c(Cl)c1` [Example 118]: the Ki was 7 nM.

As for `CN1CCCCC1C(c1ccccc1)N(C)C(=O)COc1ccc(Cl)c(Cl)c1` (centres unmarked) [Example 14], the Ki came to 7 nM.

On to `CN1CCCC[C@H]1[C@H](c1cccc(O)c1)N(C)C(=O)COc1ccc(Cl)c(Cl)c1` [Example 144], for which the Ki was 1 nM.

On to `COc1cccc(C(C2CCCCN2C)N(C)C(=O)Cc2ccc(Cl)c(Cl)c2)c1` (centres unmarked) [Example 5, benzeneacetamide,3,4-dichloro-N-[1-(3-methoxyphenyl)-1-(1-methyl-2-piperidinyl)methyl]-N-methyl-, hydrochloride], for which the Ki amounted to 152 nM.

In the case of `CN1CCCC[C@H]1[C@@H](c1ccccc1)N(C)C(=O)Cc1ccc(Cl)c(Cl)c1` [Example 109], the Ki worked out at 1660 nM.

`CN1CCCC[C@H]1[C@H](c1ccc(F)cc1)N(C)C(=O)COc1ccc(Cl)c(Cl)c1` [Example 136]: the Ki was determined as 2 nM.

Take `CN1CCCC[C@H]1[C@H](c1ccccc1)N(C)C(=O)Cc1ccc(Cl)c(Cl)c1` [Example 106, (+)-[2S-(R*,R*)]-(3,4-dichlorophenyl)-N-methyl-N-[1-(1-methyl-2-piperidinyl)phenylmethyl]acetamide hydrochloride]: the Ki stood at 6 nM.

Regarding `CN1CCCC[C@H]1[C@@H](c1ccccc1)N(C)C(=O)COc1ccc(Cl)c(Cl)c1` [Example 113], the Ki is 2430 nM.

With `CN1CCCC[C@@H]1[C@@H](c1ccccc1)N(C)C(=O)Cc1ccc(Cl)c(Cl)c1` [Example 107], the Ki came to 42 nM.

Take `CN1CCCC[C@H]1[C@H](c1cccc(O)c1)N(C)C(=O)Cc1ccc(Cl)c(Cl)c1` [Example 122]: the Ki came to 3 nM.

As for `CN1CCCC[C@@H]1[C@H](c1ccccc1)N(C)C(=O)COc1ccc(Cl)c(Cl)c1` [Example 112], the Ki worked out at 415 nM.

For the compound `CN1CCCC[C@H]1[C@H](c1ccccc1)N(C)C(=O)Cc1cccc2occc12` [Example 114], the Ki was found to be 13 nM.

Turning to `COc1cccc([C@@H]([C@@H]2CCCCN2C)N(C)C(=O)Cc2ccc(Cl)c(Cl)c2)c1` [Example 120], the Ki stood at 17 nM.

Still in this data set, the particulars now being: read-out: Receptor Binding Ki KAPPA; 1 nM (-)-[3H]EKC with 500 nM DADLE and 20 nM sufentanil; brain membranes; apparent Ki; hydrochloride.
With `CN1CCCCC1C(c1ccccc1)N(C)C(=O)Cc1ccc(Cl)c(Cl)c1` (centres unmarked), the Ki stood at 7 nM.

Test system in the next data set: not given
Test: not given
The conditions noted are these: literature/general knowledge; cited from earlier work.
As to `CN(C(=O)Cc1ccc(Cl)c(Cl)c1)[C@@H]1CCCC[C@H]1N1CCCC1` (relative stereo), the sedation in mice result is “sedation is characteristic”.

Values taken from patent US5254569A, “(Amidomethyl)nitrogen heterocyclic analgesics” (The Du Pont Merck Pharmaceutical Company, priority 1991, dated 1993).
